Data published in the OPERA property sets (Mansouri et al. 2018).

Settings: experimental values compiled from the literature

Structure (SMILES)	logP
CN(C)C(=O)OCc1cccc(N)c1	1.06
O=[N+]([O-])c1cc(O)cc([N+](=O)[O-])c1	2.36
CCOP(=S)(CC)Oc1cc(Cl)c(Cl)cc1Cl (stereo not drawn)	5.23
Cc1cc([N+](=O)[O-])cc([N+](=O)[O-])c1O	2.13
CC(C)(C)NOc1c([N+](=O)[O-])cc([N+](=O)[O-])cc1[N+](=O)[O-]	1.68
O=[N+]([O-])c1cccc([N+](=O)[O-])c1O	1.37
CC(O)C(C)(C)C (stereo not drawn)	1.48
O=[N+]([O-])c1ccc(O)c([N+](=O)[O-])c1O	2.1
Nc1cc([N+](=O)[O-])cc([N+](=O)[O-])c1O	0.93
CCC(C)NOc1c([N+](=O)[O-])cc([N+](=O)[O-])cc1[N+](=O)[O-] (stereo not drawn)	1.8
O=NN1CC(Cl)C(Cl)C1 (stereo not drawn)	0.83
C/N=C(\NC)N[N+](=O)[O-]	-0.7
COP(=O)(OC)c1ccccc1	0.95
N=C(N)N[N+](=O)[O-]	-0.89
OCCSCCO	-0.63
CCCCNOc1c([N+](=O)[O-])cc([N+](=O)[O-])cc1[N+](=O)[O-]	2.05
O=C(O)C(O)(c1ccccc1)c1ccccc1	2.3
O=[N+]([O-])OCCO[N+](=O)[O-]	1.16
O=[N+]([O-])c1cccc([N+](=O)[O-])c1	1.49

Structure (SMILES)	logP
O=[N+]([O-])c1ccc([N+](=O)[O-])c(O)c1	1.75
CCN(CC)Oc1c([N+](=O)[O-])cc([N+](=O)[O-])cc1[N+](=O)[O-]	1.29
Cc1nc([N+](=O)[O-])c([N+](=O)[O-])n1C	0.49
CNOc1c([N+](=O)[O-])cc([N+](=O)[O-])cc1[N+](=O)[O-]	0.7
O=[N+]([O-])c1cc([N+](=O)[O-])c2n[nH]cc2c1	1.6
ClCCN(CCCl)c1ccccc1	2.9
CC(C)CNOc1c([N+](=O)[O-])cc([N+](=O)[O-])cc1[N+](=O)[O-]	1.89
O=C([O-])CCCc1ccc(N(CCCl)CCCl)cc1.[Na+]	0.93
C[As](=O)([O-])O.[Na+]	-3.1
Cc1ccc([N+](=O)[O-])cc1[N+](=O)[O-]	1.98
O=[N+]([O-])c1cc([N+](=O)[O-])c(ONC2CCCCC2)c([N+](=O)[O-])c1	2.47
CC(=O)C=NO	0.34
O=[N+]([O-])c1ccc([N+](=O)[O-])cc1	1.46
CCOP(=O)(CC)Sc1ccccc1 (stereo not drawn)	2.11
NNc1ccc([N+](=O)[O-])cc1[N+](=O)[O-]	1.47
CNC(=O)CF	-0.83
Cc1c([N+](=O)[O-])cc([N+](=O)[O-])cc1[N+](=O)[O-]	1.6
O=[N+]([O-])c1ccccc1[N+](=O)[O-]	1.69
CCCSC(=NO)C(=O)c1ccc(Br)cc1	3.38
